Experimental findings from patent US20050203135A1, “Antagonists for treatment of CD/11CD18 adhesion receptor mediated disorders” (Genentech, Inc., priority 1998, published 2005) are described below.

Sequences of proteins named here, by UniProt entry; tags and fusion partners are left off. A change or cut given only in a name is not applied to a line headed by its entry.
UniProt P05107: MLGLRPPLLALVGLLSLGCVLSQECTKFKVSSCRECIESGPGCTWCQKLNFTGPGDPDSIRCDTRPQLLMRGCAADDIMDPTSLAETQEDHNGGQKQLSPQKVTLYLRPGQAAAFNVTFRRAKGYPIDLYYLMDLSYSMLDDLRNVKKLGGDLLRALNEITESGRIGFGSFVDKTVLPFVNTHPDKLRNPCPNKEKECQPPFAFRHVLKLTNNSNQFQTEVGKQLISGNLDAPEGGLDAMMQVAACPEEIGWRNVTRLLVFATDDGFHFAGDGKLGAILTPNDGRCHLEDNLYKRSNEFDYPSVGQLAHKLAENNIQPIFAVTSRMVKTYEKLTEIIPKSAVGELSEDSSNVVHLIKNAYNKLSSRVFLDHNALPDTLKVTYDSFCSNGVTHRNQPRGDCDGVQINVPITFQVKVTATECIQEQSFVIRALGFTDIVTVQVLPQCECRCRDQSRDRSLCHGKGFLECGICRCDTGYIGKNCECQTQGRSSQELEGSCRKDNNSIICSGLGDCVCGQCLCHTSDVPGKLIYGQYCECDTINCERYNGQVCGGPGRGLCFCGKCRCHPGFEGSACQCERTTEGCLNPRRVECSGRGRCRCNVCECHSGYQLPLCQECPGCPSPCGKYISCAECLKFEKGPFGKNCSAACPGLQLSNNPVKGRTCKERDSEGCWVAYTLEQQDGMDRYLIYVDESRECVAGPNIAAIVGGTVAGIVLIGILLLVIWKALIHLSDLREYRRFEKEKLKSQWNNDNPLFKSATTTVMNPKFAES
UniProt P20701: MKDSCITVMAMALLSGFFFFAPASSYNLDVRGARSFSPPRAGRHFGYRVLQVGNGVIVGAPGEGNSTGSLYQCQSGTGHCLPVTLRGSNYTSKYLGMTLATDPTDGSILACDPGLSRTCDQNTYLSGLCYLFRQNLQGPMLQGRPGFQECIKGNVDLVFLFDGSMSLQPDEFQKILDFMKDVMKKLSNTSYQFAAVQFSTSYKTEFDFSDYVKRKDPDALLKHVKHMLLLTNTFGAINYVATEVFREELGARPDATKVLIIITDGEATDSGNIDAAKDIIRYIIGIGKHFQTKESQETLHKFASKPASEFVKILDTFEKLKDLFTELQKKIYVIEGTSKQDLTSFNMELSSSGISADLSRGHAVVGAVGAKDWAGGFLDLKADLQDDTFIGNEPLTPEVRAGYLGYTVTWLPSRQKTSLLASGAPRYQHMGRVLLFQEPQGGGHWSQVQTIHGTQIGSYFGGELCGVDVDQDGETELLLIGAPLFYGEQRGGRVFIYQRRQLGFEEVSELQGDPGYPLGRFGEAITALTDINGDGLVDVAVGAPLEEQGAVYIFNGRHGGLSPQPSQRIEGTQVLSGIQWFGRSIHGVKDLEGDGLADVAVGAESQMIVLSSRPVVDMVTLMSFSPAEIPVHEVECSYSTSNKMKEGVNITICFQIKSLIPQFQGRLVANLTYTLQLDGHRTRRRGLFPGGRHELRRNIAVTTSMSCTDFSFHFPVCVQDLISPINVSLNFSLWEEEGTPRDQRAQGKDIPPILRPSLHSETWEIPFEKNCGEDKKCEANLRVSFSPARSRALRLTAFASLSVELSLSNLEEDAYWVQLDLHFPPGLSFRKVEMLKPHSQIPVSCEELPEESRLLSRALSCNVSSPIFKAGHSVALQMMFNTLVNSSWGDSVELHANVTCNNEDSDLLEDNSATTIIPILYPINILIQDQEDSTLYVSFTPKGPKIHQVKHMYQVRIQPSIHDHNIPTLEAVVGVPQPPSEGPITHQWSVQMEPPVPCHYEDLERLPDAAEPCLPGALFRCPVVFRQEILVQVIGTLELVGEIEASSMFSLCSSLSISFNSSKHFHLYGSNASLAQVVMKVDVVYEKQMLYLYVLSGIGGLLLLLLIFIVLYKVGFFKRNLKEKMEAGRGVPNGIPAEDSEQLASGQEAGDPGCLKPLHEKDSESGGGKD

The target in this assay is CD11a/CD18-ICAM-1 interaction (recombinant human LFA-1 / human 5 domain ICAM-Ig) (Homo sapiens, UniProt P05107+P20701). As to the kind of experiment: PLM2 antibody capture LFA-1:ICAM-1 assay (PLM2). The conditions noted are these: read-out: PLM2; PLM2 antibody capture format of LFA/ICAM assay.

Take 3-bromobenzyl bromide: the IC50 turned out to be 0.071 µM.
